## Apparent affinities of Ab-14 variants for a coronavirus HR2 peptide

From the AlphaSeq antibody data of Li et al. 2023 (doi:10.1038/s41467-023-39022-2), copy in the FLAb collection.

Binding partner: SARS-CoV-2 spike HR2 peptide, sequence PDVDLGDISGINAS.

Parent scFv Ab-14: VH joined to VL by a (GGGGS)3 linker. Changes lie in the light chain CDRs alone.
VH: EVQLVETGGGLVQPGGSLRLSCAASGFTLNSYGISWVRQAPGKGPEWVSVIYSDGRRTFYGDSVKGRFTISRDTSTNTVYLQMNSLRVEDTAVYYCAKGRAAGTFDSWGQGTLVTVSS
VL: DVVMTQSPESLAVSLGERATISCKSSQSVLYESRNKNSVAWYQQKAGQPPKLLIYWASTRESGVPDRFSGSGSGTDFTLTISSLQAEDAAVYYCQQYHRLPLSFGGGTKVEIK

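The starting antibody came from a phage panning campaign against this peptide. These sequences belong to a second round, designed from the earlier measurements on random variants of the parent. Their group label is 14L_GP_Gibbs (GP: Gaussian process model; Gibbs: Gibbs sampling; a sequence that several methods proposed may carry one label only). The assay is AlphaSeq: two haploid yeast populations carry antibody and antigen on their surface. The frequency of each diploid, read from paired DNA barcodes, reflects how well the two displayed proteins bind. Read counts were normalised to the haploid input and turned into Kd by a linear fit to BCL2-family pairs of known affinity, for each replicate. Each pool was mated in six replicate cultures.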

Variants are written as CDR1, CDR2 and CDR3 of the light chain (limits as in the source). Parent: KSSQSVLYESRNKNSVA, WASTRES, QQYHRLPLS.
Values are log10 of the apparent Kd in nM; lower means stronger binding.
Where no diploid with the target was found in that replicate, the entry reads "nd": below detection, most likely a poor binder, though not proof of it.
The authors averaged sequences with at least three values out of six and counted those with two or fewer as poor binders.

CDR-L1	CDR-L2	CDR-L3	replicates, log10 nM	empty controls
KLKGSVGYEERNKNSVA	GASQRES	QQYHRLPLS	0.02 / -0.20 / -0.18 / -0.52 / -0.51 / -0.26	0/18
FLEQSTLYESRMKNSVA	NASTRCS	QQYHRLPLS	1.02 / 0.44 / 0.54 / 1.05 / 0.40 / 0.50	1/18 (2.38)
KLSQEMLYESRMINSVA	NASQREV	QQYHRLPLS	0.29 / 0.28 / -0.19 / 0.10 / 0.18 / -0.06	0/18
KSQQSWEYESRNSNNVA	MGSQREV	QQYHRLPLS	0.27 / 0.13 / 0.63 / 0.49 / 0.16 / 0.82	0/18
KVSQSFEYEDRNKNSVA	QASQRCS	QQYHRLPLS	0.38 / 0.44 / 0.25 / 0.52 / 0.36 / 0.29	1/18 (2.80)
KLSMMVEMMQRNPNSVA	SASTRLS	QQYHRLPLS	0.21 / 0.09 / -0.16 / -0.10 / -0.30 / 0.00	1/18 (2.76)
KLSQSHWGESRNKNSVA	HASLREV	QQYHRLPLS	0.65 / 0.26 / 0.52 / 0.98 / 0.72 / 0.57	0/18
KLSQSDWMESRNKWNVA	SASYRES	QQYHRLPLS	0.05 / 0.02 / -0.27 / -0.33 / 0.15 / 0.34	0/18
KSMQEWEGQSRNKNSVA	HASKRES	QQYHRLPLS	1.35 / 0.68 / 0.98 / 0.93 / 0.84 / 0.76	3/18 (2.15)
KLQMSWLMQSRMKNSVA	HASMRES	QQYHRLPLS	0.78 / 0.73 / 0.70 / 0.99 / 0.87 / 1.17	2/18 (2.27)
KFEQLWMYEQRNKNSVA	NASQRED	QQYHRLPLS	-0.59 / -0.86 / -0.93 / -0.95 / -0.70 / -0.64	0/18
KQMQSGPYEDRNFNSVA	HASTRIS	QQYHRLPLS	1.42 / 1.32 / 1.11 / 1.13 / 0.84 / 1.22	1/18 (2.85)
ILQQSMLYESRNKNSVA	DASVRED	QQYHRLPLS	nd / 1.77 / 1.26 / 2.57 / 1.89 / 2.74	2/18 (2.89)
KMQQSGLMESRNDNSVA	HASTRLE	QQYHRLPLS	0.11 / -0.07 / -0.04 / -0.19 / -0.16 / 0.26	3/18 (2.98)
ALQQLELYESRNWNSVA	NASTREK	QQYHRLPLS	0.22 / 0.04 / 0.05 / -0.11 / 0.05 / 0.20	0/18
KISQSMLYEPRNWNSVA	NASTRWS	QQYHRLPLS	0.24 / 0.23 / 0.44 / 0.08 / 0.22 / 0.25	2/18 (2.25)
KLEFSVDYEDRNKNAVA	NASTREK	QQYHRLPLS	-0.05 / -0.24 / -0.18 / -0.44 / -0.25 / -0.02	0/18
KISQSTPYEDRNFNSVA	NASYRCS	QQYHRLPLS	nd / nd / nd / 2.35 / nd / nd	0/18
KLSGSMLYEERNWNSVA	HASHRES	QQYHRLPLS	0.07 / 0.05 / -0.25 / -0.34 / -0.07 / -0.09	2/18 (2.72)
KEPQSHDYESRNMNSVA	NASERES	QQYHRLPLS	-0.32 / -0.03 / -0.13 / -0.35 / -0.36 / -0.06	0/18
KVSYSGLYGSRNKWSVA	EASTRES	QQYHRLPLD	nd / 2.34 / nd / nd / nd / 3.00	1/18 (2.89)
KLSQSTLYESGMKNSVA	NASKRMQ	QQYHRLPLS	0.26 / 0.20 / 0.17 / -0.11 / 0.08 / 0.17	1/18 (2.27)
KLPQSVLYWQRNSNSVA	NASTRFS	QQYHRLPLS	0.24 / 0.17 / 0.14 / 0.15 / 0.10 / 0.28	2/18 (2.97)
KLSQSQLYLSRNMNAVA	NASQRLS	QQYHRLPLS	-0.17 / -0.20 / -0.35 / -0.33 / -0.10 / -0.11	0/18
KLSQADWYESRNKWSVA	EASLREQ	QQYHRLPLS	0.62 / 0.70 / 0.35 / 0.10 / 0.65 / 0.88	1/18 (1.88)
KFSQSVLYESRNKNSVA	NAQTRLE	QQYHRLPLS	-0.04 / -0.10 / -0.23 / -0.12 / -0.02 / -0.10	0/18
KCAQWVDYGSRNKNSVA	DASTREQ	QQYHRLPLS	-0.41 / -0.41 / -0.53 / -0.79 / -0.63 / -0.37	1/18 (4.25)
KLSQSYLMGDRNKNSVA	QASTREM	QQYHRLPLS	-0.04 / -0.15 / -0.10 / -0.35 / -0.34 / -0.04	1/18 (2.78)
KVSMSVNYGQRNKNSVA	DASQRES	QQYHRLPLS	0.13 / -0.02 / 0.18 / 0.09 / -0.01 / 0.08	0/18
KLEWSQLYWSRNSNSVA	NASTREE	QQYHRLPLS	-0.28 / -0.42 / -0.35 / -0.53 / -0.43 / -0.33	0/18
KLSMSDLYEMRNGNSVA	EASTREK	QQYHRLPLS	1.10 / 0.29 / 0.66 / 0.07 / 1.05 / 1.14	0/18
KISQSVLMESLNKNSVA	HASTRID	QQYHRLPLS	0.53 / 0.39 / 0.56 / 0.42 / 0.25 / 0.50	0/18
KLQQGMDYESRNDNSVA	HASTRES	QQYHRLPLF	0.36 / 0.60 / 0.09 / 0.63 / 0.18 / 0.36	0/18
KSEQLVDYKDRNSNSVA	NASTRES	QQYHRLPLS	1.07 / 1.48 / 1.29 / 1.58 / 1.18 / 1.95	1/18 (2.84)
KLQQSVCMESRNKNSVA	NASKREE	QQYHRLPLS	1.34 / 0.39 / 1.39 / 0.17 / 0.62 / 0.82	0/18
KLSQSVLYESAASNAVA	NAMQRMD	QQYHRLPLS	0.23 / 0.22 / -0.20 / 0.19 / -0.06 / -0.03	0/18
KLSQSFLYEDRNWNNVA	AASKRES	QQYHRLPLS	-0.29 / -0.45 / -0.37 / -0.58 / -0.43 / -0.25	1/18 (3.32)
KLQQSVLQLWRNANSVA	QASHRES	QQYHRLPLS	0.49 / 0.27 / 0.08 / 0.42 / -0.11 / 0.19	0/18
KLSQSQCYESRNKNNVA	QASDRMS	QQYHRLPLS	0.24 / 0.04 / -0.04 / -0.12 / 0.04 / 0.14	1/18 (2.40)
KLQPSMLYESRNDNSVA	DASMRES	QQYHRLPLF	0.20 / 0.13 / -0.01 / -0.20 / -0.17 / 0.23	0/18
KVSQGWLQESRNANNVA	NASQREN	QQYHRLPLS	-0.45 / -0.59 / -0.61 / -0.85 / -0.45 / -0.58	0/18

Extract of 3 entries:

CDR-L1,CDR-L2,CDR-L3,"replicates, log10 nM",empty controls
KLSQADWYESRNKWSVA,EASLREQ,QQYHRLPLS,0.62 / 0.70 / 0.35 / 0.10 / 0.65 / 0.88,1/18 (1.88)
KSEQLVDYKDRNSNSVA,NASTRES,QQYHRLPLS,1.07 / 1.48 / 1.29 / 1.58 / 1.18 / 1.95,1/18 (2.84)
KLPQSVLYWQRNSNSVA,NASTRFS,QQYHRLPLS,0.24 / 0.17 / 0.14 / 0.15 / 0.10 / 0.28,2/18 (2.97)

As a blank, each scFv also met three strains without target: over all light chain designs, 4% of these pairings were detected, typically at 2.64 and seldom below 1.59. Also given: how often the same scFv was detected with the empty control strains, with their mean in brackets.
Of ten entries with the parent sequence, four were seen in most replicates (averages 0.34 to 2.37), three in one and three in none, so single entries are noisy.
The range of this assay differs from that of the first round, and the authors advise against merging the two.